# Source: ChEMBL document CHEMBL1250451, “Mechanistic insights into a Ca2+-dependent family of alpha-mannosidases in a human gut symbiont” (Nat Chem Biol, 2010)
# B1: Alpha-1,2-mannosidase (BT_3858) (Bacteroides thetaiotaomicron), Q8A113 (protein)
# chain: MMMNRLNIKRTVGSCLMAMAFFSCTHTDQTPTKDFVDYVNPYIGNISHLLVPTYPTVHLPNSMLRVYPERGDYTSDRVNGLPVVVTSHRGSSAFNLSPVQGEVSRPIVSYSYDLENITPYSYSVYLDEADIQVEYAPSHQAGIYHISFGTEGDNALVVNTKNGKLVAEEKGVSGYQVIDNTPTKIYLYLETSQLPLRKGVLADGKVDMESKEGSAIALYYGSEKNLNLRYGISFISAEQAKKNLQRDITTYDVKAVADAGRRIWNKTLGKIVIEGGSEDEKEIFYTSLYRTYERMINLSEDGKYYSAFDGKIHEDGGVPFYTDDWIWDTYRATHPLRILIEPQKELDMIRSYIRMAEQSDRRWMPTFPEVTGDSHRMNGNHAVAVIWDAYCKGLKDFDLEAAYEACKGAITEKTLLPWLRCPLTELDKFYQEKGFFPALNPGEEETCKAVHSFERRQAVAVMLGNCYDNWCLAQIARTLNKTDDYKKFMRMSYTYRNVYNAETGFFHPKNKDGKFIEPFDYRYSGGQGARGYYGENNGWIYRWDVQHNPADLIALMGGQASFIERLNQTFNEPLGRSKFDFYHQLPDHTGNVGQFSMANEPCLHIPYLYNYAGQPWMTQKRIRVLLNQWFRNDLMGVPGDEDGGGMTAFVVFSMMGFYPVTPGSPTYNIGSPVFQSAKMEVGDGHYFEIIAENYAPDHKYIQSATLNGTPWNKPWFSHADIQNGGRLVLQMGDKPNKKWGIASDAVPPSSESLPE
# B2: Alpha-1,2-mannosidase (BT_1769) (Bacteroides thetaiotaomicron), Q8A6V7 (protein)
# chain: MKLTHILASAAIISTLSACNGSLQTADRTPVDYVNPYIGNISHLLVPTFPTIQLPNSMLRVYPERADYTSELLKGLPLIVTNHRERSAFNFSPYQGEKLRPVITYNYDNEHITPYSFDVELDDNRMKAEYALSHQSAIYRITYEADKPAYLIVNSRNGSIHANENFISGRQQLNDNTNVYVYIEAQEKPISAGILENGTIETSKDNAEGANACAAWRFADGTTTVNLRYGISFISEEQAEKNLHRELKDYNIKALAEAGRQIWNETLGRIQVEGGTEDDKTVFYSSFYRTFERPICMSEGGRYFSAFDGKVHEDNGTPFYTDDWIWDTYRAAHPLRTLIDQQKEEDIIASYLRMAEQMGNMWMPTFPEVTGDTRRMNSNHAVATVADALAKGLKVDTAKAYEACRKGIEEKTLAPWSGAPAGWLDNFYRENGYIPALRVDEPENDPNVHPFEKRQPVAVTLGTSYDQWCLSRIAQALNKKEEAEYYLKCSYNYRNLYNKETAFFHPKDKEGQWIEPFDYRFPGGMGAREYYGENNGWVYRWDVPHNVADLISLMGGNEQFIANLDRTFTEPLGRSKYAFYAKLPDHTGNVGQFSMANEPSLHVPYLYNYAGQPWKTQKRIRQMLKTWFRNDLMGIPGDEDGGGMTSFVVFSSLGFYPVTPGLPAYTIGSPLFTDAKIRLSNGAVFEIEAKNASTDNKYIQSATLNGKEWNKSWFSHDDLMSGGKLVLVMGNKPNKTWASGAEDVPPSLEIK
# B3: Alpha-1,2-mannosidase (BT_3991) (Bacteroides thetaiotaomicron), Q8A0N0 (protein)
# chain: MKLKTLLIGCFGGFIMLNSCTESPSVKDYSAYVNPFIGTGGHGHTFPGAVVPHGMIQPSPDTRIDGWDACSGYYYDDNTINGFSHTHVSGTGCCDYGDVLLMPTVGKPQYLTTDPESQKLAYASAFSHENETAEPGYYSVFLDTYQVKAEITATKRGAIHRYTFPESTESGFIIDLDYSLQRQTNYEMEIEVISDTEICGHKKTTYWAFDQYINFYAKFSKPFAYTLITDSVTMDNGKRLPVCKAVLHFNTKKDEEVLVKVGVSAVDIAGARKNVESEIPEWDFDKVRKDARTAWNNYLSKIDITTSDKEDKTIFYTALYHTAISPNLFTDADGRYLGMDLEVHQGDTINPLYTVFSLWDTFRALHPLMTIIDPNLNNQFINSLIRKHQEGGIYPMWDLASNYTGTMIGYHAVPVIVDAYMKGYRNFDAHEAYKASLRAAEYDTTGIKCPDLVLPHLMPKAKYYKNAIGYIPCDRENESVAKALEYAYDDWCISIFAEAMNDFENKAKYERFAKAYEFYFDKSTRFMRGLDSNGEWRTPFNPRASTHRSDDYCEGTAWQWTWFVPHDVEGLVKLMGGEDAFVEKLDSLFTVDSSLDGETTSADISGLIGQYAHGNEPSHHVIHLYNYVNRPWRTQELVDSVYRSQYANNVDGLSGNEDCGQMSAWYILNSMGFYQVCPGKPVYSIGRPAFDKAVINLPGEKTFSIVAKNNSKSNKYIESVLLNGKPLDTPFFGHQDIVAGGVMEIRMTDHPTQWGVRQ
# B4: Alpha-1,2-mannosidase, putative (BT_3773) (Bacteroides thetaiotaomicron), Q8A193 (protein)
# chain: MNAFKLLMAASCFLGLATSGVAKQDYSKSEGLLQYVDPYIGSGFHGHVFVGTSVPYGMVQLGPNNIHKGWDWCSGYHYSDSILIGFSHTHLSGTGCTDLGDILIMPLNEIRTPRGNQDDIRDGYASKYSHDNEIARPEYYSLILDRYNIKAELTATDRVGFHRYTYPEGKPVSILIDLREGNGSNAYDSYIRKVDDYTVEGYRYVRGWSPSRKVYFVLKSDQKIEKFTAYDDNTPKLWDQLKVESVKSVLTFGNVKEVKIKVAISSVSCDNAAMNLQAELSHWDFDKVVKMSSDRWNKQLDKMTVESDDEAAKRVFYTAHYHTMIAPTLYCDVNGEYRGMNDMIYTDPKKANYTTLSLWDTYRALNPLMTIIQPEMVDNVINSMLSIYRQQDKLPIWPLMSGETNCMPGYSSVPVIADAYLKGFTGFDAEEALTAMKATATYEGQNGVPYVMAKGYIPADKIHEATSIAMEYAVDDWGIAAMAQKMGKTADYETFSKRAHYYKNYFDSSIHFIRPKLEDGSWRTPYDPARSIHGVGDFCEGNGWQYTFFAPQDPYGLISLFGGDKPFTSKLDSFFTNNDSMGEGASSDITGLIGQYAHGNEPSHHIAYLYTYAGEQWKTAEKVRFIMSDFYTDQPDGIIGNEDCGQMSAWYLLSAMGFYQVNPSDGVFAFGSPRFKKIEVKVRGGKVFTVEAPNNSKDNIYIQKVYLNGKPYHKSYITYDDIINGSTLKFEMGKKPAKNFGKASANRPIVLNK
# B5: Alpha-1,2-mannosidase (BT_1878) (Bacteroides thetaiotaomicron), Q8A6K3 (protein)
# chain: MIIMKRKSPVMAVALAGLFMYTSCSPTEQAETKDYTQYVNTFIGAADNGHTFPGACYPFGMIQTSPVTGAVGWRYCSEYTYQDSLIWGFTQTHLNGTGCMDLGDILVMPVTGTRARAWDAYRSHFPKDKEAATPGYYTVELSDPQVKAELTASIHAALHRYTYHKADSASLLIDLQHGPAWREEQYHSQVNSCEVNWEDAQTLAGHVNNTVWVDQDYFFVMKFNRPVIDSLYLPMGETEKGKRIIATFDLKPGDELMMKVALSTTSVEGAKKNLQAEIPDWNFDGVKLAAHDEWNSYLSRMDVEGTDDEKTNFYTCFYHALIQPNQISDVDGMYRNAADSIVKAGTGTFYSTFSLWDTYRAAHPFYTLMVPERVDDFVNSLIEQGEVQGFLPIWALWGKENFCMIGNHGVSVIAEAYRKGFRGFDAERAFNMVKKTQTVSHPLKSDWEVYTKYGYFPTDLTKAESVSSTLESVYDDYAAADMARRMGKEEDAAYFAKRADYYKNLFDSQTNFMRPRKADGTWKSPFNPSDVGHAESTGGDYTEGNAWQYTWHVQHDVPGLIALFGGEEPFLNKLDSLFTVKLETTQADVTGLIGQYAHGNEPSHHVTYLYALAGRPERTQELIREIFDTQYKNKPDGLCGNDDCGQMSAWYMFSAMGFYPVDPVSGDYVFGAPQLPKIVLHLADGKTFTVIAENLSKEHKYVDSITLNGEPYTKNTISHEDILKGGTLVYKMK
# B6: Alpha-1,2-mannosidase, putative (BT_3130) (Bacteroides thetaiotaomicron), Q8A325 (protein)
# chain: MKKLLLSVCAFSLTLATLQAGEITKYVNPFIGTGAIDGGLSGNNYPGATSPFGMIQLSPDTSEAPNWGDASGYDYNRNTIFGFSHTRLSGTGASDLIDITLMPTSSGRTSSAFTHDEEKARPGYYQVMLKDENINAELTTTQRNGIHRYQYPAGKDAEIILDMDHSADKGSWGRRIINSQIRILNDHAVEGYRIITGWAKLRKIYFYMEFSSPILTSTLRDGGRVHENTAVINGTNLHGCFRFGQLNGKPLTCKVALSSVSMENARQNMEQEAPHWDFDRYVAAADADWEKQLGKIEVKGTEVQKEIFYTALYHTMIQPNTMSDVNGEYMAADYTTRKVANNETHYTTFSLWDTFRASHPLYTLLEPERVTDFVKSMIRQYEYYGYLPIWQLWGQDNYCMIGNHSIPVITDAILKGIPGIDMEKAYEAVYNSSVTSHPNSPFEVWEKYGFMPENIQTQSVSITLEQAFDDWCVAQLAAKLNKDADYQRFHKRSEYYRNLFHPKTKFFQSKNDKGEWIEPFDPYQYGGNGGHPFTEGNAWQYFWYVPHNIQALMELTGGTKAFEQKLDTFFTSTYKSEQMNHNASGFVGQYAHGNEPSHHVAYLYNFAGQPWKTQKYVSHILNTLYNNTSSGYAGNDDCGQMSAWYVFSAMGFYPVNPADGRYIIGSPLLDECTLKLAGNKEFRIRTIRKSPEDIYIQSVTLNGKKHKDFFITHQDIMNGGTMVFKMGKKPSGWGK
# Tests used:
# Format in all cases: protein assay
# [1] = substrate: OC[C@H]1O[C@H](O[C@@H]2[C@H](O)[C@@H](O)O[C@H](CO)[C@H]2O)[C@@H](O)[C@@H](O)[C@@H]1O; assay: Ratio of Kcat to Km for Bacteroides thetaiotaomicron GH92 alpha-mannosidase GH92 alpha-mannosidase 3858 assessed as mannose release after 16 hrs by HPLC
# [2] = substrate: OC[C@H]1O[C@H](O[C@@H]2[C@H](O)[C@@H](O)O[C@H](CO)[C@H]2O)[C@@H](O)[C@@H](O)[C@@H]1O; assay: Activity of Bacteroides thetaiotaomicron GH92 alpha-mannosidase GH92 alpha-mannosidase 3858 assessed as mannose release after 16 hrs by HPLC
# [3] = substrate: OC[C@H]1O[C@H](O[C@@H]2[C@H](O)[C@@H](O)O[C@H](CO)[C@H]2O)[C@@H](O)[C@@H](O)[C@@H]1O; assay: Activity of Bacteroides thetaiotaomicron GH92 alpha-mannosidase GH92 alpha-mannosidase 1769 assessed as mannose release after 16 hrs by HPLC
# [4] = substrate: OC[C@H]1O[C@H](O[C@@H]2[C@H](O)[C@@H](O)O[C@H](CO)[C@H]2O)[C@@H](O)[C@@H](O)[C@@H]1O; assay: Ratio of Kcat to Km for Bacteroides thetaiotaomicron GH92 alpha-mannosidase GH92 alpha-mannosidase 1769 assessed as mannose release after 16 hrs by HPLC
# [5] = substrate: OC[C@H]1O[C@H](O[C@@H]2[C@H](O)[C@@H](O)O[C@H](CO)[C@H]2O)[C@@H](O)[C@@H](O)[C@@H]1O; assay: Activity of Bacteroides thetaiotaomicron GH92 alpha-mannosidase GH92 alpha-mannosidase 3991 assessed as mannose release after 16 hrs by HPLC
# [6] = substrate: OC[C@H]1O[C@H](O[C@@H]2[C@H](O)[C@@H](O)O[C@H](CO)[C@H]2O)[C@@H](O)[C@@H](O)[C@@H]1O; assay: Ratio of Kcat to Km for Bacteroides thetaiotaomicron GH92 alpha-mannosidase GH92 alpha-mannosidase 3991 assessed as mannose release after 16 hrs by HPLC
# [7] = substrate: OC[C@H]1O[C@H](O[C@@H]2[C@H](O)[C@@H](O)O[C@H](CO)[C@H]2O)[C@@H](O)[C@@H](O)[C@@H]1O; assay: Activity of Bacteroides thetaiotaomicron GH92 alpha-mannosidase GH92 alpha-mannosidase 3773 assessed as mannose release after 16 hrs by HPLC
# [8] = substrate: OC[C@H]1O[C@H](O[C@@H]2[C@H](O)[C@@H](O)O[C@H](CO)[C@H]2O)[C@@H](O)[C@@H](O)[C@@H]1O; assay: Ratio of Kcat to Km for Bacteroides thetaiotaomicron GH92 alpha-mannosidase GH92 alpha-mannosidase 3773 assessed as mannose release after 16 hrs by HPLC
# [9] = substrate: OC[C@H]1O[C@H](O[C@@H]2[C@H](O)[C@@H](O)O[C@H](CO)[C@H]2O)[C@@H](O)[C@@H](O)[C@@H]1O; assay: Activity of Bacteroides thetaiotaomicron GH92 alpha-mannosidase GH92 alpha-mannosidase 1878 assessed as mannose release after 16 hrs by HPLC
# [10] = substrate: OC[C@H]1O[C@H](O[C@@H]2[C@H](O)[C@@H](O)O[C@H](CO)[C@H]2O)[C@@H](O)[C@@H](O)[C@@H]1O; assay: Ratio of Kcat to Km for Bacteroides thetaiotaomicron GH92 alpha-mannosidase GH92 alpha-mannosidase 1878 assessed as mannose release after 16 hrs by HPLC
# [11] = substrate: OC[C@H]1O[C@H](O[C@@H]2[C@H](O)[C@@H](O)O[C@H](CO)[C@H]2O)[C@@H](O)[C@@H](O)[C@@H]1O; assay: Ratio of Kcat to Km for Bacteroides thetaiotaomicron GH92 alpha-mannosidase GH92 alpha-mannosidase 3130 assessed as mannose release after 16 hrs by HPLC
protein,measurement,setting,value
B1,kcat/Km,[1],28300 M⁻¹ s⁻¹
same,Km,[2],1400 µM
same,kcat,[2],40 s⁻¹
B2,Km,[3],1300 µM
same,kcat,[3],63.3 s⁻¹
same,kcat/Km,[4],48300 M⁻¹ s⁻¹
B3,Km,[5],9000 µM
same,kcat,[5],4.67 s⁻¹
same,kcat/Km,[6],517 M⁻¹ s⁻¹
B4,Km,[7],2500 µM
same,kcat,[7],0.0183 s⁻¹
same,kcat/Km,[8],7.5 M⁻¹ s⁻¹
B5,Km,[9],2000 µM
same,kcat,[9],0.283 s⁻¹
same,kcat/Km,[10],140 M⁻¹ s⁻¹
B6,kcat/Km,[11],3.33 M⁻¹ s⁻¹
